Source: patent publication US9302989B2 (priority 2010, dated 2016)

Sequences of proteins named here, by UniProt entry; tags and fusion partners are left off. A change or cut given only in a name is not applied to a line headed by its entry.
UniProt P43490: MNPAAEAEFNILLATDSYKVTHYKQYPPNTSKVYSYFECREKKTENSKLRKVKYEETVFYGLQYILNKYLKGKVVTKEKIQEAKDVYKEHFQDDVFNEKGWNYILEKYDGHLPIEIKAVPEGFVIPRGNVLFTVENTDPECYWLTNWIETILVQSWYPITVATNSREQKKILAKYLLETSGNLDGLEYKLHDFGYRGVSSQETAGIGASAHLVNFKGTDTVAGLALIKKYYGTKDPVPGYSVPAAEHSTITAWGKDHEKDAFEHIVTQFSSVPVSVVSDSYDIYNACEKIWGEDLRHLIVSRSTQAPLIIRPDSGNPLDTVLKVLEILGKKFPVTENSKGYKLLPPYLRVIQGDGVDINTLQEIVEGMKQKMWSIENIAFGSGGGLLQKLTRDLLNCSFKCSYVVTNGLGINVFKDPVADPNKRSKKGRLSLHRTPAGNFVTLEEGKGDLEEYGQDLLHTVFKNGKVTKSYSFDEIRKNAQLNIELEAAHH

Target: NAMPT (Homo sapiens (Human), UniProt P43490)
Details: read-out: TR-FRET Binding IC50 (μM) probe 1

SMILES | IC50 [µM]
O=C(Nc1ccc(-c2c[nH]c(=O)c3ccccc23)cc1)N1Cc2ccc(CN3CCCC3)cc2C1 [Example 387, N-[4-(1-oxo-1,2-dihydroisoquinolin-4-yl)phenyl]-5-(pyrrolidin-1-ylmethyl)-1,3-dihydro-2H-isoindole-2-carboxamide] | 0.17
CN(C)Cc1ccc2c(c1)CN(C(=O)Nc1ccc(-c3c[nH]c(=O)c4ccccc34)cc1)C2 [Example 389, 5-[(dimethylamino)methyl]-N-[4-(1-oxo-1,2-dihydroisoquinolin-4-yl)phenyl]-1,3-dihydro-2H-isoindole-2-carboxamide] | 0.266
CC(C)(C)OC(=O)N1CCC(c2ccc(NC(=O)N3Cc4ccccc4C3)cc2)CC1 [Example 401, tert-butyl 4-{4-[(1,3-dihydro-2H-isoindol-2-ylcarbonyl)amino]phenyl}piperidine-1-carboxylate] | 0.072
CCCc1nc(-c2ccc(NC(=O)N3Cc4ccccc4C3)cc2)no1 [Example 402, N-[4-(5-propyl-1,2,4-oxadiazol-3-yl)phenyl]-1,3-dihydro-2H-isoindole-2-carboxamide] | 0.183
O=C(Nc1ccc(C2CCNCC2)cc1)N1Cc2ccccc2C1 [Example 403, N-[4-(piperidin-4-yl)phenyl]-1,3-dihydro-2H-isoindole-2-carboxamide] | 0.606
CCCC(=O)N1CCC(c2ccc(NC(=O)N3Cc4ccccc4C3)cc2)CC1 [Example 405, N-[4-(1-butyrylpiperidin-4-yl)phenyl]-1,3-dihydro-2H-isoindole-2-carboxamide] | 0.012
CC(C)C(=O)N1CCC(c2ccc(NC(=O)N3Cc4ccccc4C3)cc2)CC1 [Example 406, N-[4-(1-isobutyrylpiperidin-4-yl)phenyl]-1,3-dihydro-2H-isoindole-2-carboxamide] | 0.011
O=C(Nc1ccc(C2CCN(C(=O)c3ccccc3)CC2)cc1)N1Cc2ccccc2C1 [Example 407, N-[4-(1-benzoylpiperidin-4-yl)phenyl]-1,3-dihydro-2H-isoindole-2-carboxamide] | 0.00145
CC(C)CCc1nc(-c2ccc(NC(=O)N3Cc4ccccc4C3)cc2)no1 [Example 408, N-{4-[5-(3-methylbutyl)-1,2,4-oxadiazol-3-yl]phenyl}-1,3-dihydro-2H-isoindole-2-carboxamide] | 0.372
O=C(Nc1ccc(-c2noc(Cc3ccccc3)n2)cc1)N1Cc2ccccc2C1 [Example 409, N-[4-(5-benzyl-1,2,4-oxadiazol-3-yl)phenyl]-1,3-dihydro-2H-isoindole-2-carboxamide] | 1.02
O=C(NC[C@H]1CCOC1)c1ccc(NC(=O)N2Cc3ccccc3C2)cc1 [Example 410, N-(4-{[(3R)-tetrahydrofuran-3-ylmethyl]carbamoyl}phenyl)-1,3-dihydro-2H-isoindole-2-carboxamide] | 0.0295
O=C(NC[C@@H]1CCOC1)c1ccc(NC(=O)N2Cc3ccccc3C2)cc1 [Example 411, N-(4-{[(3S)-tetrahydrofuran-3-ylmethyl]carbamoyl}phenyl)-1,3-dihydro-2H-isoindole-2-carboxamide] | 0.0197
O=C(Nc1ccc(Cl)cn1)c1ccc(NC(=O)N2Cc3ccccc3C2)cc1 [Example 413, N-{4-[(5-chloropyridin-2-yl)carbamoyl]phenyl}-1,3-dihydro-2H-isoindole-2-carboxamide] | 2.01
COc1ccc(NC(=O)c2ccc(NC(=O)N3Cc4ccccc4C3)cc2)cc1O [Example 414, N-{4-[(3-hydroxy-4-methoxyphenyl)carbamoyl]phenyl}-1,3-dihydro-2H-isoindole-2-carboxamide] | 0.032
COc1ccc(CNC(=O)c2ccc(NC(=O)N3Cc4ccccc4C3)cc2)c(OC)c1 [Example 415, N-{4-[(2,4-dimethoxybenzyl)carbamoyl]phenyl}-1,3-dihydro-2H-isoindole-2-carboxamide] | 0.0121
O=C(NCc1ccc(N2CCCC2=O)cc1)c1ccc(NC(=O)N2Cc3ccccc3C2)cc1 [Example 416, N-(4-{[4-(2-oxopyrrolidin-1-yl)benzyl]carbamoyl}phenyl)-1,3-dihydro-2H-isoindole-2-carboxamide] | 0.041
O=C(N[C@H]1c2ccccc2C[C@@H]1O)c1ccc(NC(=O)N2Cc3ccccc3C2)cc1 [Example 417, N-(4-{[(1S,2S)-2-hydroxy-2,3-dihydro-1H-inden-1-yl]carbamoyl}phenyl)-1,3-dihydro-2H-isoindole-2-carboxamide] | 4.91
O=C(NCC1CCCCO1)c1ccc(NC(=O)N2Cc3ccccc3C2)cc1 (stereo not shown) [Example 419, N-{4-[(tetrahydro-2H-pyran-2-ylmethyl)carbamoyl]phenyl}-1,3-dihydro-2H-isoindole-2-carboxamide] | 0.01
O=C(NCC1CCCOC1)c1ccc(NC(=O)N2Cc3ccccc3C2)cc1 (stereo not shown) [Example 420, N-{4-[(tetrahydro-2H-pyran-3-ylmethyl)carbamoyl]phenyl}-1,3-dihydro-2H-isoindole-2-carboxamide] | 0.0182
O=C(NCC1CCOCC1)c1ccc(NC(=O)N2Cc3ccccc3C2)cc1 [Example 421, N-{4-[(tetrahydro-2H-pyran-4-ylmethyl)carbamoyl]phenyl}-1,3-dihydro-2H-isoindole-2-carboxamide] | 0.0404
CC(C)(C)OC(=O)N1CCN(c2nc3ccc(NC(=O)N4Cc5ccccc5C4)cc3[nH]2)CC1 [Example 422, tert-butyl 4-{6-[(1,3-dihydro-2H-isoindol-2-ylcarbonyl)amino]-1H-benzimidazol-2-yl}piperazine-1-carboxylate] | 3.94
O=C(Nc1ccc2nc(N3CCNCC3)[nH]c2c1)N1Cc2ccccc2C1 [Example 423, N-[2-(piperazin-1-yl)-1H-benzimidazol-6-yl]-1,3-dihydro-2H-isoindole-2-carboxamide] | 12.5
C=Cc1ccc2c(c1)CN(C(=O)Nc1ccc(C(=O)NCCC)cc1)C2 [Example 424, N-[4-(propylcarbamoyl)phenyl]-5-vinyl-1,3-dihydro-2H-isoindole-2-carboxamide] | 0.0826
O=C(Nc1ccc(C(=O)N2CCN(C(=O)c3ccccc3)CC2)cc1)N1Cc2ccccc2C1 [Example 425, N-{4-[(4-benzoylpiperazin-1-yl)carbonyl]phenyl}-1,3-dihydro-2H-isoindole-2-carboxamide] | 0.0814
O=C(NC[C@@H]1CCCO1)c1ccc(NC(=O)N2Cc3ccncc3C2)cc1 [Example 426, N-(4-{[(2S)-tetrahydrofuran-2-ylmethyl]carbamoyl}phenyl)-1,3-dihydro-2H-pyrrolo[3,4-c]pyridine-2-carboxamide] | 0.0104
O=C(NC[C@H]1CCCO1)c1ccc(NC(=O)N2Cc3ccncc3C2)cc1 [Example 427, N-(4-{[(2R)-tetrahydrofuran-2-ylmethyl]carbamoyl}phenyl)-1,3-dihydro-2H-pyrrolo[3,4-c]pyridine-2-carboxamide] | 0.0154
O=C(Nc1ccc(-c2noc(C3CCOC3)n2)cc1)N1Cc2ccccc2C1 (stereo not shown) [Example 428, N-{4-[5-(tetrahydrofuran-3-yl)-1,2,4-oxadiazol-3-yl]phenyl}-1,3-dihydro-2H-isoindole-2-carboxamide] | 0.0327
CC(C)CN1CC=C(c2ccc(NC(=O)N3Cc4ccccc4C3)cc2)CC1 [Example 429, N-[4-(1-isobutyl-1,2,3,6-tetrahydropyridin-4-yl)phenyl]-1,3-dihydro-2H-isoindole-2-carboxamide] | 0.179
